Reported properties for industrial, environmental and drug-like chemicals

Source: data files of OPERA 2.9 (Mansouri et al.), github.com/kmansouri/OPERA.

The melting point is given in degrees Celsius.
Boiling points are in °C, nominally at 760 mmHg.
The octanol-water partition coefficient is given as log10; larger values mean a more lipophilic compound.
Water solubility is log10 of mol/L, nominally at 25 °C; higher is more soluble.
Vapor pressures (log10 mmHg) refer to near room temperature, 15 to 30 °C; higher is more volatile.
The Henry's law constant is on a log10 scale in atm·m3/mol (set defined at 25 °C); higher favours air over water.
The unbound fraction in human plasma runs from 0 (all bound) to 1 (all free).
Clint is human hepatic intrinsic clearance in µL/min per million cells; 0 means that no clearance was seen.

{"smiles": "O=C(O)COc1ccc2ccccc2c1", "name": "2-Naphthoxyacetic acid", "log S (log10 mol/L)": "-3", "vapor pressure (log10 mmHg)": "-7.664", "Henry's law constant (log10 atm·m3/mol)": "-8.98"}
{"smiles": "Cc1ccc(S(=O)(=O)n2cc(-c3ncc(F)c(N[C@H]4C5CCC(CC5)[C@@H]4C(=O)O)n3)c3cc(F)cnc32)cc1", "mp (°C)": "253.4", "log S (log10 mol/L)": "-6.542", "vapor pressure (log10 mmHg)": "-9.639"}
{"smiles": "CCN(CC)c1ccc(C(=O)c2ccccc2C(=O)O)c(O)c1", "name": "2-[4-(diethylamino)-2-hydroxybenzoyl]benzoic acid", "fraction unbound": "0.00517", "hepatic Clint (µL/min/10^6 cells)": "2"}
{"smiles": "CCC(C)Nc1ccc(Cc2ccc(NC(C)CC)cc2)cc1", "stereo": "stereo not drawn", "name": "4,4'-Bis(sec-butylamino)diphenylmethane", "logP": "5.4", "log S (log10 mol/L)": "-5.337", "vapor pressure (log10 mmHg)": "-7.999"}
{"smiles": "Cc1ccc(N)c(S(=O)(=O)O)c1", "name": "2-Amino-5-methylbenzenesulfonic acid", "logP": "-0.67", "log S (log10 mol/L)": "-1.131"}
{"smiles": "O=C(c1ccccc1)c1ccc(Cl)cc1", "name": "4-Chlorobenzophenone", "logP": "3.748", "log S (log10 mol/L)": "-4.02"}
{"smiles": "Cc1ccc(S(=O)(=O)C(I)I)cc1", "name": "Diiodomethyl 4-methylphenyl sulfone", "mp (°C)": "136", "logP": "2.66", "vapor pressure (log10 mmHg)": "-6.018"}
{"smiles": "CCCCS(=O)(=O)N[C@@H](Cc1ccc(OCCCCC2CCNCC2)cc1)C(=O)O", "name": "Tirofiban", "logP": "1.4", "log S (log10 mol/L)": "-5.143"}
{"smiles": "CC(=CCCC=O)CCCC(C)(C)O", "name": "9-Hydroxy-5,9-dimethyl-4-decenal", "BP (°C)": "268", "vapor pressure (log10 mmHg)": "-3.694"}
{"smiles": "CC1=NN(c2ccccc2)C(=O)C1=CC1C(=O)N(c2ccccc2)N=C1C", "stereo": "stereo not drawn", "mp (°C)": "183", "logP": "5.02", "log S (log10 mol/L)": "-7.882"}
{"smiles": "CC(C)CCC(C)C(C)O", "stereo": "stereo not drawn", "name": "2-Heptanol, 3,6-dimethyl-", "BP (°C)": "186", "logP": "3.47", "log S (log10 mol/L)": "-2.413", "vapor pressure (log10 mmHg)": "-0.326"}
{"smiles": "CC1CNCC(C)O1", "stereo": "stereo not drawn", "name": "2,6-Dimethyl morpholine", "logP": "-0.126", "vapor pressure (log10 mmHg)": "0.495"}
{"smiles": "Cc1ccc(-c2ccc(B(O)O)c(F)c2)cc1", "name": "(4'-Methyl-3-fluoro[1,1'-biphenyl]-4-yl)-boronic acid", "logP": "3.8", "log S (log10 mol/L)": "-4.771", "vapor pressure (log10 mmHg)": "-5.262"}
{"smiles": "CCCCCC[C@@H](O)C/C=C\\CCCCCCCC(=O)OC", "name": "Methyl ricinoleate", "logP": "5.1", "log S (log10 mol/L)": "-6.526", "vapor pressure (log10 mmHg)": "-3.166"}
{"smiles": "CC1CN(c2ccccc2)NC1=O", "stereo": "stereo not drawn", "name": "4-Methyl-1-phenylpyrazolidin-3-one", "logP": "0.624", "log S (log10 mol/L)": "-2.368"}
{"smiles": "NCCCCCN", "name": "Cadaverine", "logP": "-0.3", "vapor pressure (log10 mmHg)": "1.106"}
{"smiles": "CCCC1CCC(c2ccc(-c3ccc(CC)cc3)cc2)CC1", "stereo": "stereo not drawn", "mp (°C)": "166", "log S (log10 mol/L)": "-7.185", "vapor pressure (log10 mmHg)": "-7.355"}
{"smiles": "CCCCCCCCCCCCCCCCOC(=O)c1cc(C(C)(C)C)c(O)c(C(C)(C)C)c1", "name": "Hexadecyl 3,5-di-tert-butyl-4-hydroxybenzoate", "BP (°C)": "334.9", "vapor pressure (log10 mmHg)": "-4.358"}
{"smiles": "FC(F)=C(F)C(F)(F)OC(F)(F)C(F)(F)C(F)(F)F", "mp (°C)": "-83.5", "BP (°C)": "60.8", "logP": "4.7", "log S (log10 mol/L)": "-5.945"}
{"smiles": "CCCCCCCCCCCCCCCCOP(=O)([O-])O.[K+]", "name": "Potassium hexadecyl hydrogen phosphate", "mp (°C)": "154.9", "log S (log10 mol/L)": "-3.26"}
{"smiles": "C=CCCC1CCC(C2CCC(c3ccc(C)cc3)CC2)CC1", "stereo": "stereo not drawn", "mp (°C)": "103.7", "log S (log10 mol/L)": "-6.869"}
{"smiles": "O=c1c2ccccc2[nH]c2cc3c(=O)c4c(Cl)c(Cl)ccc4[nH]c3cc12", "name": "1,2-Dichloro-5,12-dihydroquinolino[2,3-b]acridine-7,14-dione", "logP": "1.56", "log S (log10 mol/L)": "-7.067"}
{"smiles": "ClCc1ccc(-c2ccc(CCl)cc2)cc1", "name": "4,4'-Bis(chloromethyl)-1,1'-biphenyl", "logP": "4.61", "vapor pressure (log10 mmHg)": "-3.462"}
{"smiles": "COC(=O)c1c(Cl)nn(C)c1S(=O)(=O)NC(=O)Nc1nc(OC)cc(OC)n1", "name": "Halosulfuron-methyl", "vapor pressure (log10 mmHg)": "-6.58", "fraction unbound": "0.009244", "hepatic Clint (µL/min/10^6 cells)": "0"}
{"smiles": "CCO[Si](CC(C)C)(OCC)OCC", "name": "Triethoxy(2-methylpropyl)silane", "mp (°C)": "-72", "log S (log10 mol/L)": "-3.017", "vapor pressure (log10 mmHg)": "-0.521"}
{"smiles": "CCCCOCCOC(=O)c1ccccc1C(=O)OCCOCCCC", "name": "Bis(2-butoxyethyl) phthalate", "BP (°C)": "270", "log S (log10 mol/L)": "-3.087"}
{"smiles": "CN(C)c1ccc(/N=N/c2n(C)cc[n+]2C)cc1.[Cl-]", "logP": "-1.97", "vapor pressure (log10 mmHg)": "-9.698"}
{"smiles": "C=CC(=O)NCOCCCC", "name": "N-(Butoxymethyl)acrylamide", "mp (°C)": "-59.25", "vapor pressure (log10 mmHg)": "-2.686"}
{"smiles": "CCCCCCCC/C=C/CCCCCCCC(=O)O.CCCCCCCC/C=C/CCCCCCCC(=O)O.CCCCCCCC/C=C/CCCCCCCCNCCCN", "mp (°C)": "-9", "logP": "0.03", "log S (log10 mol/L)": "-8.25", "vapor pressure (log10 mmHg)": "-4.949"}
{"smiles": "CCCC(C#N)CCC", "name": "2-Propylvaleronitrile", "logP": "2.71", "log S (log10 mol/L)": "-2.717", "vapor pressure (log10 mmHg)": "-0.399"}
{"smiles": "CC(C)(C)c1cc(O)c(C(C)(C)C)cc1O", "name": "2,5-Di-tert-butylbenzene-1,4-diol", "logP": "2.44", "log S (log10 mol/L)": "-4.767", "vapor pressure (log10 mmHg)": "-4.326"}
{"smiles": "C1CCc2[nH]nnc2C1", "name": "1H-Benzotriazole, 4,5,6,7-tetrahydro-", "mp (°C)": "54", "logP": "0.705"}
{"smiles": "COc1ccc(CC2CC2)cc1", "name": "1-(Cyclopropylmethyl)-4-methoxybenzene", "mp (°C)": "-23.15", "log S (log10 mol/L)": "-3.541", "vapor pressure (log10 mmHg)": "-2.072"}
{"smiles": "NCCOCCN", "name": "2,2'-Oxybis(ethylamine)", "logP": "-2.12", "vapor pressure (log10 mmHg)": "-0.149"}
{"smiles": "CC(=O)C(N=Nc1ccc(-c2ccc(N=NC(C(C)=O)C(=O)Nc3ccccc3)c(Cl)c2)cc1Cl)C(=O)Nc1ccccc1", "stereo": "stereo not drawn", "name": "C.I. Pigment Yellow 12", "mp (°C)": "320", "logP": "2.1"}

The first 5 entries again:

{"smiles": "O=C(O)COc1ccc2ccccc2c1", "name": "2-Naphthoxyacetic acid", "log S (log10 mol/L)": "-3", "vapor pressure (log10 mmHg)": "-7.664", "Henry's law constant (log10 atm·m3/mol)": "-8.98"}
{"smiles": "Cc1ccc(S(=O)(=O)n2cc(-c3ncc(F)c(N[C@H]4C5CCC(CC5)[C@@H]4C(=O)O)n3)c3cc(F)cnc32)cc1", "mp (°C)": "253.4", "log S (log10 mol/L)": "-6.542", "vapor pressure (log10 mmHg)": "-9.639"}
{"smiles": "CCN(CC)c1ccc(C(=O)c2ccccc2C(=O)O)c(O)c1", "name": "2-[4-(diethylamino)-2-hydroxybenzoyl]benzoic acid", "fraction unbound": "0.00517", "hepatic Clint (µL/min/10^6 cells)": "2"}
{"smiles": "CCC(C)Nc1ccc(Cc2ccc(NC(C)CC)cc2)cc1", "stereo": "stereo not drawn", "name": "4,4'-Bis(sec-butylamino)diphenylmethane", "logP": "5.4", "log S (log10 mol/L)": "-5.337", "vapor pressure (log10 mmHg)": "-7.999"}
{"smiles": "Cc1ccc(N)c(S(=O)(=O)O)c1", "name": "2-Amino-5-methylbenzenesulfonic acid", "logP": "-0.67", "log S (log10 mol/L)": "-1.131"}

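These are experimental values that the OPERA curators gathered from public databases to train and test their QSAR models. The files give a single number for a compound and property, which may rest on several reports. Method, purity and exact conditions of the single measurements are not given. A value may pool stereoisomers or salt forms, and the file does not say which form was measured. Some upstream entries may be estimates or bounds without being marked so.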